The test has as its target T1, MBL/Ficolin associated protein-1 (MAP-1) (human, UniProt P48740 20-363, N-glycosylated (shift from ~45 kDa to ~40 kDa with N-glycosidase F); two potential glycosylation sites at positions 49 and 178 of SEQ ID NO:1).
T1 construct: Signal peptide is residues 1-19; also called FAP; rMAP-1
T1 sequence: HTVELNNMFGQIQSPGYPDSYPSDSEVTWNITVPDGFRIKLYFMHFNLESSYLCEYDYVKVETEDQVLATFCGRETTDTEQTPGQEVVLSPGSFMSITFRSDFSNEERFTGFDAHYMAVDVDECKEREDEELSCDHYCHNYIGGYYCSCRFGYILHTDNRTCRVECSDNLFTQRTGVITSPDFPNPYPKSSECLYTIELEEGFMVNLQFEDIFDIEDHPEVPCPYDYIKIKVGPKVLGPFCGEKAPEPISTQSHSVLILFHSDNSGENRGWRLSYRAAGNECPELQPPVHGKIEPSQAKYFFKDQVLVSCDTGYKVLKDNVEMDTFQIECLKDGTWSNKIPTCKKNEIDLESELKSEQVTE
The test is described as follows: sandwich ELISA on 100 donor sera, capture mAb 20C4, detection FCN-219. On the procedure: The relative association between MAP-1 and MBL, Ficolin-2 and -3 was assessed essentially as described previously (Skjoedt et al., 2009) with the modification that the MAP-1 specific mAb 20C4 was used as capture antibody (coated at 6 μg/ml). […] The serum samples from the same 100 Danish blood donors as above were analyzed.
We analyzed the same 100 donor serum samples as used for the MAP-1 determinations and assessed the serum association levels between MAP-1 and Ficolin-2, -3 and MBL given as relative O.D. 490-650 nm (FIG. 30A). In addition we measured the serum concentration of MBL, Ficolin-2 and -3 as previously (Skjoedt et al., 2009).

B1: Ficolin-2 (other, human, UniProt Q15485 26-313, looked up)
chain: LQAADTCPEVKMVGLEGSDKLTILRGCPGLPGAPGPKGEAGTNGKRGERGPPGPPGKAGPPGPNGAPGEPQPCLTGPRTCKDLLDRGHFLSGWHTIYLPDCRPLTVLCDMDTDGGGWTVFQRRVDGSVDFYRDWATYKQGFGSRLGEFWLGNDNIHALTAQGTSELRVDLVDFEDNYQFAKYRSFKVADEAEKYNLVLGAFVEGSAGDSLTFHNNQSFSTKDQDNDLNTGNCAVMFQGAWWYKNCHVSNLNGRYLRGTHGSFANGINWKSGKGYNYSYKVSEMKVRPA
notes: Serum protein
As for B1, the binding result was “binds”.

The values above are taken from US20120282285A1 (RIGSHOSPITALET, published 2012).
